According to patent US11505521B2, “Crystalline epinephrine malonate salt” (Biothea Pharma, Inc., priority 2018, dated 2022):

Details: 20 mg in 20 mL water, 25° C.
Method: The tests were conducted using Sartorius balances (Model SQP) and a pH meter (Brand: INESA, Model No. PHS-3E). 20 mg of the sample was weighed and transferred into a 20 mL volumetric flask with the remainder of the volume comprising water. The solution was mixed. The pH meter was calibrated with pH 4.0 and pH 6.8 standard buffer solutions at 25° C.

Which pH does the source give for `CNC[C@H](O)c1ccc(O)c(O)c1` [epinephrine bitartrate] here?
The pH was 3.75.
